Values of other authors in patent US8183258B2, “Heterocyclic compounds and their uses” (Amgen Inc., priority 2007, dated 2012).

Protein sequences, listed by entry. Tags and fused reporters are not part of them.
UniProt P42338, whole entry, species assumed: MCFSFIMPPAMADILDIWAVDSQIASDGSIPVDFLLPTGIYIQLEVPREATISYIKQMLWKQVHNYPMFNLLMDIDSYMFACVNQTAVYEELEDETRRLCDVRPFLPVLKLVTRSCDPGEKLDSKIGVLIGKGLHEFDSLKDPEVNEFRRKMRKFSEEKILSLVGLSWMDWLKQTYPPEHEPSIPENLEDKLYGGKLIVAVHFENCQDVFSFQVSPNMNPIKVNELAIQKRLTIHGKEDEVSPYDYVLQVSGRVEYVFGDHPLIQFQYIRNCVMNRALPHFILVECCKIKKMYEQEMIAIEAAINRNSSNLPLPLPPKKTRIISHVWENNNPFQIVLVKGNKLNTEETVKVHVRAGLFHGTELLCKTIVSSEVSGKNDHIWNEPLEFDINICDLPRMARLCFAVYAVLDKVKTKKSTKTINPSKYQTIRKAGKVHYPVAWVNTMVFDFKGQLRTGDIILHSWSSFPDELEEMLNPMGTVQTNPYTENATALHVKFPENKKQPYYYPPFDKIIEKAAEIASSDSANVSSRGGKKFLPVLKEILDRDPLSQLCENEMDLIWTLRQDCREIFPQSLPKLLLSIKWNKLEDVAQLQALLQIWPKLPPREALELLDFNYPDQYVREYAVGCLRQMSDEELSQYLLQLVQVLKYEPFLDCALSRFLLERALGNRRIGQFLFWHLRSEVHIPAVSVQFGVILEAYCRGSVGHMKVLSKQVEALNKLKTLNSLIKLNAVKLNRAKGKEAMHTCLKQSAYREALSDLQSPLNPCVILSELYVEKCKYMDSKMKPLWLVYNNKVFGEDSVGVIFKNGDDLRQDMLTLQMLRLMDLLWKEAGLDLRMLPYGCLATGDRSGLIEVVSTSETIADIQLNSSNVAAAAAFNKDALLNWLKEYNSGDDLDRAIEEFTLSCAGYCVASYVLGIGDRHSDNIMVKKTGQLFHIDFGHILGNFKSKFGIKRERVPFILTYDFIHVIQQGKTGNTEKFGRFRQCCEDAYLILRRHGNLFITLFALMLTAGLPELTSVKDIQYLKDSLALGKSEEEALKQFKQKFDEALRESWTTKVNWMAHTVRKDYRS

Target: p110β (Homo sapiens, UniProt P42338)
Details: read-out: potency on beta; cited from earlier work

Cc1cc(C(C)Nc2ccccc2)c2nc(N3CCOCC3)cc(=O)n2c1 (stereo not shown) [TGX-221]
IC50: 7 nM
